The text below walks through data of PubChem BioAssay AID624296 (National Center for Advancing Translational Sciences (NCATS), 2012).

Structures are written as SMILES. The entries are a selection whose mix differs from that of the whole data set. Records with an inconclusive call do not appear. Where a call stands in place of a potency, no number is given. The source made the active and inactive calls. The call rests on the fitted dose curve; in most records, active means well fitted activation curve with a large enough effect; inconclusive means small, poorly fitted or top-dose-only effect; inactive means no such curve, though single readings can be large or run the other way.
Potency means the concentration at half of the fitted maximal effect.

A short description of the experiment: A quantitative high throughput screen for small molecules that induce DNA re-replication in MCF 10a normal breast cells. Further: nearly all actives have a fitted effect of over 50% in size. The following applies: MCF 10A DNA re-replication, Hoechst nuclear intensity, 48 h; series mostly up to 46.1 µM.
Regarding `O=C(O)COc1ccc([As](=O)(O)O)cc1[N+](=O)[O-]`, the Potency result is “inactive”.

`Nc1ccccc1[As](=O)(O)c1ccccc1`: the Potency result is “inactive”.

Turning to `O=P(Nc1nccs1)(c1ccccc1)c1nc2ccccc2s1` (configuration not stated), the Potency result is “inactive”. For the compound `O=[N+]([O-])c1ccc2c(c1)nnn2O`, the Potency entry was “inactive”. Turning to `CN(C(=O)Cc1ccc(Cl)c(Cl)c1)[C@H]1CC[C@@]2(CCCO2)C[C@@H]1N1CCCC1`, the Potency result was “inactive”. As for `CCOP1(=S)c2c(C)nn(CCC#N)c2N=C(c2ccc(F)cc2)N1C` (configuration not stated), the Potency result is “inactive”. On to `CN(C(=O)Cc1ccccc1)[C@@H]1CC[C@]2(CCCO2)C[C@H]1N1CCCC1`, for which the Potency entry is “inactive”. The entry for `NC(=O)Nc1ccc([As](=O)(O)O)cc1` is “inactive”; for `Cc1cccc(OCC(=O)OC2CN3CCC2CC3)c1` (configuration not stated) it is “inactive”. Turning to `O=[As](O)(c1cccc(O)c1)c1cccc(O)c1`, the Potency result was “inactive”.

For `O=[As](O)(O)c1cccnc1`, the Potency entry was “inactive”. Turning to `COc1cc(C(=O)NCC2(N3CCOCC3)CCCCC2)cc(Cl)c1OC(C)C`, the Potency result is “inactive”.

As for `CS(=O)(=O)c1ccc(Cl)c(NC(=O)COC(=O)C(O)(c2ccccc2)c2ccccc2)c1`, the Potency result is “inactive”.

On to `O=C(OC1CN2CCC1CC2)c1ccc(Cl)cc1` (configuration not stated), for which the Potency entry was “inactive”. The result for `COc1cc(C2NCCC3(OCCO3)C2(C)C)cc(OC)c1OC` (configuration not stated) reads “inactive”. The entry for `CCOP(=O)(Nc1cccc2ccccc12)OCC` is “inactive”; for `CCCOP(=S)(Nc1nc(N)cc(=O)[nH]1)OCCC` it is “inactive”; for `Nc1cccc2c([As](=O)(O)O)cccc12` it is “inactive”. Take `Clc1n[nH]nc1-c1nn[nH][15n]1`: the Potency entry was “inactive”. As to `CC(C)(C)C(=O)NC(Sc1ncccn1)C(Cl)(Cl)Cl` (configuration not stated), the Potency entry is “inactive”. The result for `CCOP(=O)(Nc1ccc(C)cn1)OCC` reads “inactive”; that for `CN(CCCl)Cc1cc(Cl)c(NC2=NCCN2)c(Cl)c1`, “inactive”; that for `CCC1=CC2Cc3nc4ccc(Cl)cc4c(N)c3C(C1)C2` (configuration not stated), “inactive”.

As to `O=P1(Nc2ccccn2)COc2ccccc2OC1`, the Potency result was “inactive”. The result for `CCOP(=O)(NC(=NC(C)c1ccccc1)NC(C)c1ccccc1)OCC` (configuration not stated) reads “inactive”; that for `CC1(CBr)Cn2c(nc3ccccc3c2=O)S1` (configuration not stated), “inactive”; that for `CC(C)/C=N\N=C(\N)N[N+](=O)[O-]`, “inactive”. The result for `COc1ccccc1CNC(=O)COC(=O)C(O)(c1ccccc1)c1ccccc1` reads “inactive”; that for `O=C(/C=C/c1ccccc1)OC1CN2CCC1CC2` (configuration not stated), “inactive”. Consider `CCCC1OP(=O)(Nc2ccccc2)OCC1CC` (configuration not stated), for which the Potency entry is “inactive”. The entry for `CN(C)C1(CNC(=O)c2ccc(S(C)(=O)=O)cc2)CCCCC1` is “inactive”; for `Cc1nn(-c2ccccc2)c2c1P(=O)(N1CCOCC1)N(C)C(c1ccccc1)=N2` (configuration not stated) it is “inactive”. The entry for `Cc1ccc(C(=O)OC2CN3CCC2CC3)cc1` (configuration not stated) is “inactive”; for `Cc1ccc(OCC(=O)OC2CN3CCC2CC3)cc1` (configuration not stated) it is “inactive”.

Take `O=[As](O)(c1cccs1)c1cccs1`: the Potency entry is “inactive”. The result for `NS(=O)(=O)c1cccc(NC(=O)COC(=O)C(O)(c2ccccc2)c2ccccc2)c1` reads “inactive”; that for `O=P1(Nc2ccc(Br)cn2)COc2ccccc2OC1`, “inactive”; that for `Nc1cccc([As](=O)(O)c2ccccc2)c1`, “inactive”. On to `O=P1(Nc2ncccn2)COc2ccccc2OC1`, for which the Potency result is “inactive”. The result for `CCCCOc1ccc(C(=O)NCC2(N3CCCCC3)CCCCC2)cc1OC` reads “inactive”; that for `Cc1cc(SC(NC(=O)c2ccccc2)C(Cl)(Cl)Cl)nc(C(C)C)n1` (configuration not stated), “inactive”; that for `CC1CCNP(=O)(N(CCCl)CCCl)O1` (configuration not stated), “inactive”. Consider `CCOC(=O)Nc1ccc([As](=O)(O)O)c(O)c1`, for which the Potency result was “inactive”. As to `O=[N+]([O-])c1ccc(Nc2ccc(Oc3ccc([N+](=O)[O-])cc3[N+](=O)[O-])cc2)c([N+](=O)[O-])c1`, the Potency entry was “inactive”. With `Cc1cc(SC(NC=O)C(Cl)(Cl)Cl)ncn1` (configuration not stated), the Potency entry is “inactive”.

As for `O=P(Nc1ccccn1)(c1cccc2ccccc12)c1cccc2ccccc12`, the Potency result was “inactive”. The entry for `CCOC(=O)Nc1cccc([As](=O)(O)O)c1` is “inactive”; for `O=C(COc1ccccc1)OC1CN2CCC1CC2` (configuration not stated) it is “inactive”. The entry for `O=C(Nc1ccncc1[N+](=O)[O-])c1ccc([N+](=O)[O-])cc1[N+](=O)[O-]` is “inactive”; for `COP1(=S)c2c(C)nn(CCC#N)c2N=C(c2ccc(F)cc2)N1C` (configuration not stated) it is “inactive”; for `CCC(C)N(CC(C)C)C(=S)SC(NC(C)=O)C(Cl)(Cl)Cl` (configuration not stated) it is “inactive”. Regarding `CCOC(=O)c1ccc(NC(=O)C(C)(CCl)SC)cc1` (configuration not stated), the Potency entry is “inactive”. Turning to `O=C(OC1CN2CCC1CC2)c1cccc([N+](=O)[O-])c1` (configuration not stated), the Potency entry was “inactive”.

Consider `COc1ccc2nc(NP(=O)(c3ccccc3)c3ccccc3)sc2c1`, for which the Potency result was “inactive”. The entry for `COc1cc(I)ccc1[As](=O)(O)O` is “inactive”; for `O=P1(N(CCCl)CCCl)Nc2ccccc2N1` it is “inactive”.

With `O=P1(N(CCCl)CCCl)OCCCN1CCCl` (configuration not stated), the Potency result was “inactive”. Regarding `O=C(OC1CN2CCC1CC2)C12CC3CC(CC(C3)C1)C2` (configuration not stated), the Potency result was “inactive”. The entry for `Cc1cc(=O)[nH]c(N[N+](=O)[O-])n1` is “inactive”; for `Cc1c2c(nc3ccccc13)SC(C(Cl)Cl)C2` (configuration not stated) it is “inactive”; for `COc1ccc(N/C(=N/P(=O)(N2CCOCC2)N2CCOCC2)N2CCOCC2)cc1` it is “inactive”.

`O=[N+]([O-])c1cc(Oc2ccc([N+](=O)[O-])cc2C(F)(F)F)cc([N+](=O)[O-])c1`: the Potency result is “inactive”. For `Cc1ccc2nc3c(c(C)c2c1)CC(C(Cl)Cl)S3` (configuration not stated), the Potency was active: 20.6 µM. The result for `Cc1ccc(OP(=O)(Nc2ccc([N+](=O)[O-])cn2)Oc2ccc(C)cc2)cc1` reads “inactive”; that for `C[As](=O)(O)c1cccc(C(=O)O)c1`, “inactive”; that for `O=[N+]([O-])c1ccc(-c2cc([N+](=O)[O-])c(O)c([N+](=O)[O-])c2)cc1`, “inactive”. Consider `COc1cc(C(=O)NCC2(N3CCOCC3)CCCCC2)ccc1OCC(C)C`, for which the Potency result is “inactive”.

With `CC(C)NC(=O)NP(=O)(Oc1ccccc1)Oc1ccccc1`, the Potency entry was “inactive”.

For `CCN(CC)C(=S)SC(NC=O)C(Cl)(Cl)Cl` (configuration not stated), the Potency entry is “inactive”.

On to `O=C(OC1CN2CCC1CC2)c1cccc2[nH]cnc12` (configuration not stated), for which the Potency entry is “inactive”.

For `O=[N+]([O-])c1cc([N+](=O)[O-])c(-c2ccn[nH]2)s1`, the Potency result was “inactive”. As for `COC(=O)C1(C)COP(=O)(N2CCCCCC2)OC1` (configuration not stated), the Potency result is “inactive”. The entry for `CC(C)c1ccc(OP(=O)(Nc2ccccn2)Oc2ccccc2F)cc1` (configuration not stated) is “inactive”; for `ClCCSc1nnc(-c2cccnc2)o1` it is “inactive”. The result for `Cc1cc(SC(NC(=O)c2ccc(F)cc2)C(Cl)(Cl)Cl)ncn1` (configuration not stated) reads “inactive”; that for `CCOP(=O)(Nc1ccccc1)OCC`, “inactive”.

Regarding `CC(=O)Nc1ccc([As](=O)(O)O)cc1`, the Potency entry is “inactive”. The figure for `O=C(O)c1ccccc1[As](=O)(O)O` is active: 23.1 µM; for `CCCC1OP(N)(=O)OCC1CC` (configuration not stated) it is “inactive”.

On to `O=P(Nc1nc2ccc(Cl)cc2s1)(c1ccccc1)c1ccccc1`, for which the Potency result was “inactive”. The entry for `CCN(N=Nc1nonc1N)c1nonc1N` is “inactive”. The entry for `Nc1cccc2ccc([As](=O)(O)O)cc12` is “inactive”; for `COc1ccccc1OP(=O)(Nc1ccc(C)cn1)Oc1ccccc1OC` it is “inactive”.

With `Cc1ccc(OP(=O)(Nc2nccs2)Oc2ccc(C)cc2)cc1`, the Potency result was “inactive”.

Turning to `CN1CCCC(OC(=O)C(c2ccccc2)c2ccccc2)C1` (configuration not stated), the Potency result was “inactive”.

Turning to `Clc1ccc(Cl)c(NC2=NCC(CBr)S2)c1` (configuration not stated), the Potency result is “inactive”. The entry for `Cc1ccc(N/C(=N/P(=O)(N2CCOCC2)N2CCOCC2)N2CCOCC2)cc1` is “inactive”.

Consider `Nc1cc(N)c2nonc2c1[N+](=O)[O-]`, for which the Potency entry was “inactive”. `CC(C)CC(=O)NC(Sc1ccc(Cl)cc1)C(Cl)(Cl)Cl` (configuration not stated): the Potency entry is “inactive”. As for `Oc1ccccc1CNc1ccccn1`, the Potency result was “inactive”. The result for `O=C(NC(Sc1ccncn1)C(Cl)(Cl)Cl)c1ccccc1` (configuration not stated) reads “inactive”; that for `CC(=O)N1C2C3N(C(C)=O)C1C1N(C(C)=O)C(C(N1C(C)=O)N3C(C)=O)N2C(C)=O`, “inactive”. With `O=[N+]([O-])c1cccc2n[nH]nc12`, the Potency entry is “inactive”. The result for `Cc1ccc(NP(=O)(Oc2ccccc2)Oc2ccccc2)nc1` reads “inactive”; that for `CCc1nc2c(n1)c1c(non1O)c1c2no[n+]1[O-]`, active: 2.91 µM. The entry for `COc1ccc(C2=NCC(CBr)S2)cc1` (configuration not stated) is “inactive”. Take `CC(C)=N/N=C(\N)N[N+](=O)[O-]`: the Potency result is “inactive”.

Consider `CN(C)C(=O)OCCc1n(C)cc[n+]1C`, for which the Potency result was “inactive”. The entry for `Nc1ccc([As](=O)(O)c2ccc(N)cc2)cc1` is “inactive”; for `CCN(/C(=N/P(=O)(N1CCOCC1)N1CCOCC1)N1CCOCC1)c1ccc(OC)cc1` it is “inactive”. The result for `O=C(Nc1cc([As](=O)(O)O)ccc1O)c1ccccc1` reads “inactive”; that for `O=P1(N(CCCl)CCCl)OCCCS1` (configuration not stated), “inactive”; that for `COC(=O)C1(C)COP(=O)(Nc2ccccc2)OC1` (configuration not stated), “inactive”. The result for `O=[N+]([O-])c1cccc(NC2=NCC(CBr)S2)c1` (configuration not stated) reads “inactive”; that for `O=C(O)CNc1ccc([As](=O)(O)O)cc1`, “inactive”. For `CC(C)(C)C(=O)NC(Sc1ccncn1)C(Cl)(Cl)Cl` (configuration not stated), the Potency result was “inactive”.

In the case of `O=[N+]([O-])c1ncn(CCn2ncnc2[N+](=O)[O-])n1`, the Potency result is “inactive”. Consider `O=P(Nc1nc2ccccc2s1)(c1ccccc1)c1ccccc1`, for which the Potency entry is “inactive”. On to `C[C@H]1OP(=O)(Oc2ccccc2)[C@H](O)[C@H](O)[C@H]1N=[N+]=[N-]` (some centres not stated), for which the Potency entry is “inactive”. Turning to `CN(C(=O)Cc1ccccc1)[C@H]1CC[C@@]2(CCCO2)C[C@@H]1N1CCCC1`, the Potency entry was “inactive”. Take `COc1ccc(N)c([N+](=O)[O-])c1[N+](=O)[O-]`: the Potency entry was “inactive”.

Consider `CN(C)C1(CNC(=O)c2ccc(Cl)c(S(N)(=O)=O)c2)CCCCC1`, for which the Potency entry is “inactive”. The result for `O=P(Nc1ccccn1)(c1ccc(Br)cc1)c1ccc(Br)cc1` reads “inactive”; that for `C(Cc1nn[nH]n1)Cc1nn[nH]n1`, “inactive”; that for `Nc1ccc([As](=O)(O)c2ccc([N+](=O)[O-])cc2)cc1`, “inactive”. For the compound `O=C(OC1CN2CCC1CC2)c1cccc(Cl)c1` (configuration not stated), the Potency result was “inactive”. Regarding `O=[N+]([O-])c1ncn(CCn2cnc([N+](=O)[O-])n2)n1`, the Potency result is “inactive”.

Turning to `O=[N+]([O-])c1ccc(O)c(/C=N/Nc2ccc([N+](=O)[O-])cc2[N+](=O)[O-])c1`, the Potency entry is “inactive”.

Take `O=[As](O)(c1ccccc1)c1ccc(O)cc1`: the Potency entry is “inactive”. In the case of `c1nnnn1CCn1cnnn1`, the Potency entry was “inactive”. The result for `O=P(Nc1nccs1)(c1ccccc1)c1ccccc1` reads “inactive”. The result for `CC(C)C(=O)NC(Sc1ccccc1)C(Cl)(Cl)Cl` (configuration not stated) reads “inactive”.
